Reference: publication PMC4600463 (European journal of medicinal chemistry, 2015)

System: Nrf2 target genes HMOX1 and NQO1 in MLE12 (mouse lung alveolar epithelial cell line) cells
Conditions: 10 μM, 6 h, MLE-12 cells, Western blot

Structure (SMILES): CCOC(=O)CN(c1ccc(NS(=O)(=O)c2ccc(OC)cc2)c2ccccc12)S(=O)(=O)c1ccc(OC)cc1
- Induction of HMOX1 (in words): potently induced
- Induction of Nrf2 target genes HMOX1 and NQO1 (in words): levels similar to that of the well-known electrophilic activator sulforaphane
- Stabilization of Nrf2 protein levels (in words): stabilized Nrf2 levels
